Patent US9572347B2, “Method for inactivating a virus” (THE UNIVERSITY OF TOKYO, priority 2009, dated 2017)

Columns and labels:
phage [1] = assay: virus inactivation in the presence of an organic substance (gelatin); assay type: cell-based
Procedure: After a predetermined time passed, phage concentration of each sample was measured.
The phage concentration was measured by the following method. Each sample was immersed in 10 mL of a recovery solution (SM buffer), and shaken for 10 minutes on a shaking machine. This phage recovery solution was appropriately diluted, and mixed with a culture medium of Escherichia coli (NBRC 13965) separately cultured (0D600>1.0, 1×10^8 CFU/mL), and the mixture was stirred, and left standing in an incubator at 37° C. for 10 minutes, so that Escherichia coli was infected with the phage. This mixture was inoculated on an agar medium, culture was performed at 37° C. for 15 hours, and then the number of phage plaques was visually counted. The resulting number of plaques was multiplied with the dilution times of the phage recovery solution to obtain the phage concentration.

Qβ phage (NBRC 20012) = assay: phage inactivation ability test on sample-coated glass plate (Example 1 method); assay type: cell-based
phages = assay: persistent virus inactivation on repeated exposure to phages in water; assay type: cell-based
Procedure: The same experiment system was also placed in a dark place. After about 24 hours, the phage solution was sampled, and phage concentration was determined. […] After the sampling, phages were added again, the phage solution was sampled after about 24 hours, and the phage concentration was determined in a similar manner.

[2] = test system: methicillin-resistant Staphylococcus aureus (MRSA), Escherichia coli, and Pseudomonas aeruginosa; details: Int. J. Antimicrob. Agents 33, 587-590, 2009; cited from earlier work
phage [3] = assay: virus inactivation action in a dry state (low humidity); assay type: cell-based; details: Cu2O 0.08 g/m^2
Source text: The evaluation of the virus inactivation action performed in Example 1 and the like utilized the evaluation system comprising filter paper containing water, and accordingly, the humidity at the time of the evaluation was about 80% or higher. It is known that activity of viruses generally becomes low at high humidity, and the activity becomes high at low humidity. Therefore, it was studied whether the agent for virus inactivation of the present invention successfully maintains the high activity even under low humidity conditions.

With cuprous oxide [Cu2O] the virus inactivation action (phage [1]; carried Cu2O 0.24 g/m^2, sample containing 0.1% of gelatin, FIG. 10) was “promptly exhibited”, the virus inactivation action (phage [1]; carried Cu2O decreased to 1/10, sample not containing gelatin) was “achieved at a comparable level” and the phage concentration (Qβ phage (NBRC 20012); Example 4: Cu2O immobilized on glass with TEOS binder, 0.24 g/m^2, contact 30 minutes, FIG. 5) was “markedly decreased”. The phage inactivation effect (Qβ phage (NBRC 20012); in the dark place (Dark)) was “observed”, the phage inactivation effect (Qβ phage (NBRC 20012); under light irradiation (WL, white light), 800 luxes) was “observed” and the phage concentration (phages; in 1/500 NB medium, after about 24 hours, dark place) was “below the detection limit”. For the same substance, the phage concentration (phages; in 1/500 NB medium, after about 24 hours, irradiation of white light (WL)) was “below the detection limit”, the inactivation effect (phages; operation repeated further 5 times) was “observed after each of 5 times of the operation” and the phage concentration (phages; phages added again, sampled after about 24 hours) was “below the detection limit”. For the same substance, the “antibacterial activity (MBC)” value [2] was “inferior to that of divalent copper compound (CuO) or metallic copper (Cu), and remarkably weaker than that of silver (Ag)”, the phage concentration (phage [3]; contact for 4 hours, dark place, 13% humidity) was “below the detection limit” and the phage concentration (phage [3]; light irradiation for 1 hour at 40% humidity) was “below the detection limit”.
